# Data as given in PubChem BioAssay AID504734 (The Scripps Research Institute Molecular Screening Center, 2011).
# The chains behind the UniProt entries cited, without tags or fusion partners. Where a name states a change or a piece, a line headed by the entry shows the natural chain unless it says otherwise.
# UniProt Q9NR96: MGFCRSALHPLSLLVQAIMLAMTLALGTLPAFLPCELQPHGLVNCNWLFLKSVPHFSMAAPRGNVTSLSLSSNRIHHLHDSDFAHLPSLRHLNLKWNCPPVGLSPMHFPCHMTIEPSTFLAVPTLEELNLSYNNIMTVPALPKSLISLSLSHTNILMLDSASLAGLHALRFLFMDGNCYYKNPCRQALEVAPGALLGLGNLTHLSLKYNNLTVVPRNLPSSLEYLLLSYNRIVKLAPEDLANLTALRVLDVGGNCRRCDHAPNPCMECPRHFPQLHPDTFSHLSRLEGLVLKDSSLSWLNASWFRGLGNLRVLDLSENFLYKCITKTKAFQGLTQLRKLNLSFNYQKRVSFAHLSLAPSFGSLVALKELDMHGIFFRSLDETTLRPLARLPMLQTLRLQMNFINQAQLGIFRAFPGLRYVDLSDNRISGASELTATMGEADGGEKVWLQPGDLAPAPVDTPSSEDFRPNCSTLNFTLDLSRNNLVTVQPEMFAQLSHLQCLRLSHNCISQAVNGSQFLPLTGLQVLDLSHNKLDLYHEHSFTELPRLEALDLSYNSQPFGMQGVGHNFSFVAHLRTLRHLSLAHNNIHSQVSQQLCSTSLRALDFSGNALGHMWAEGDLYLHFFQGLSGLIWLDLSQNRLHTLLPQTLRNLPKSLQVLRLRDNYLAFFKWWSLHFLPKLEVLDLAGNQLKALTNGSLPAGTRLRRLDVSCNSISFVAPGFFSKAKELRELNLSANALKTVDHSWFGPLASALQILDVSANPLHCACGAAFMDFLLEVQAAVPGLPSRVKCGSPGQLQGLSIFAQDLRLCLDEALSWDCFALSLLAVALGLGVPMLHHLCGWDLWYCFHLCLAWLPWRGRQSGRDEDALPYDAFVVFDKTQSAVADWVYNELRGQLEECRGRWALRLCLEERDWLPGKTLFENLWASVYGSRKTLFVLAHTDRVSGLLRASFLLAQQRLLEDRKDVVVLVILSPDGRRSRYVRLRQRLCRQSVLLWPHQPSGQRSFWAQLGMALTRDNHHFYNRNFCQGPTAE
# UniProt Q99836, whole entry, looked up: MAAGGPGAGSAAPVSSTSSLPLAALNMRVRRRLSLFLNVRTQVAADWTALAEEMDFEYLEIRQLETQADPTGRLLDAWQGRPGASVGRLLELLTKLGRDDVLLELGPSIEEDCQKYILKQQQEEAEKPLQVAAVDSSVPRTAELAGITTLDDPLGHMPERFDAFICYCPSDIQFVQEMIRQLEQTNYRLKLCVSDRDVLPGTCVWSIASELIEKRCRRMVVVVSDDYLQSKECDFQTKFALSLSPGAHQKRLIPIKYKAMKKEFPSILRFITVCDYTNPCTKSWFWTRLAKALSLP
# The list shows a part of the results, in another mix than the full data. The source made the active and inactive calls.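 How the source made its calls: active means inhibition above the mean over all tested compounds plus 3 SD (cut at about 21% in these data); inactive means the rest.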
# Target: Toll-like receptor 9 (Homo sapiens) + Myeloid differentiation primary response protein MyD88 (Homo sapiens) (UniProt Q9NR96+Q99836)
# Experiment: disruptors of TLR9 binding to MyD88 – cell-based, CHO, BLA complementation, fluorescence, primary screen (AID 504734);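 further: 0% = DMSO only wells and 100% = clavulanate BLA inhibitor control wells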
# Settings: CHO BLA complementation TLR9-MyD88, CCF4 FRET ratio; at 4.98 µM; stronger effect = higher value
row,SMILES,inhibition
1,CC(C)(C)C(=O)NC(Sc1ncccn1)C(Cl)(Cl)Cl (centres undefined),inactive: 4.68%
2,Clc1n[nH]nc1-c1nn[nH][15n]1,inactive: -4.63%
3,O=P1(N(CCCl)CCCl)NCCC(C(F)(F)F)O1 (centres undefined),inactive: 1.95%
4,CCOP(=O)(NC(=NC(C)c1ccccc1)NC(C)c1ccccc1)OCC (centres undefined),inactive: -12.3%
5,CCC1=CC2Cc3nc4ccc(Cl)cc4c(N)c3C(C1)C2 (centres undefined),inactive: 7.48%
6,O=P1(Nc2ccccn2)COc2ccccc2OC1,inactive: 13.3%
7,CCOP(=O)(Nc1ccc(C)cn1)OCC,inactive: -13.1%
8,CN(C(=O)Cc1ccc(Cl)c(Cl)c1)[C@@H]1CCCC[C@H]1N1CCCC1,inactive: -4.97%
9,CC(C)/C=N\N=C(\N)N[N+](=O)[O-],inactive: -15.2%
10,CC1(CBr)Cn2c(nc3ccccc3c2=O)S1 (centres undefined),inactive: 3.63%
11,COc1ccccc1CNC(=O)COC(=O)C(O)(c1ccccc1)c1ccccc1,inactive: 14.8%
12,CN(C)C1(CNC(=O)c2ccc(S(C)(=O)=O)cc2)CCCCC1,inactive: -1.77%
13,CCCC1OP(=O)(Nc2ccccc2)OCC1CC (centres undefined),inactive: 0.86%
14,O=C(/C=C/c1ccccc1)OC1CN2CCC1CC2 (centres undefined),inactive: 5.4%
15,Cc1ccc(C(=O)OC2CN3CCC2CC3)cc1 (centres undefined),inactive: 2.2%
16,CC1CCC(C(C)C)C(OP(=O)(Nc2ccccn2)c2ccccc2)C1 (centres undefined),inactive: 9.99%
17,Cc1nn(-c2ccccc2)c2c1P(=O)(N1CCOCC1)N(C)C(c1ccccc1)=N2 (centres undefined),inactive: 10.1%
18,Nc1cccc([As](=O)(O)c2ccccc2)c1,inactive: 5.66%
19,Cc1ccc(OCC(=O)OC2CN3CCC2CC3)cc1 (centres undefined),inactive: -7.09%
20,O=[As](O)(c1cccs1)c1cccs1,inactive: -0.1%
21,NS(=O)(=O)c1cccc(NC(=O)COC(=O)C(O)(c2ccccc2)c2ccccc2)c1,inactive: 0.95%
22,O=P1(Nc2ccc(Br)cn2)COc2ccccc2OC1,inactive: -1.08%
23,O=P1(Nc2ncccn2)COc2ccccc2OC1,inactive: 3.69%
24,O=C(O)COc1ccc([As](=O)(O)O)cc1[N+](=O)[O-],inactive: 0.78%
25,Nc1ccccc1[As](=O)(O)c1ccccc1,inactive: 5.29%

row,SMILES,inhibition
1,O=P(Nc1nccs1)(Oc1ccccc1)Oc1ccccc1,inactive: -5.19%
2,O=P(Nc1nccs1)(c1ccccc1)c1nc2ccccc2s1 (centres undefined),inactive: 7.52%
3,CCOP1(=S)c2c(C)nn(CCC#N)c2N=C(c2ccccc2F)N1C (centres undefined),inactive: -4.73%
4,CS(=O)(=O)c1cc([N+](=O)[O-])c2no[n+]([O-])c2c1,inactive: 4.78%
5,CCOP1(=S)c2c(C)nn(CCC#N)c2N=C(c2ccc(F)cc2)N1C (centres undefined),inactive: -2.1%
6,CN(C(=O)Cc1ccccc1)[C@@H]1CC[C@]2(CCCO2)C[C@H]1N1CCCC1,inactive: 0.38%
7,N#CCCN(C(=O)COC(=O)C(O)(c1ccccc1)c1ccccc1)c1ccc(F)cc1,inactive: -4.88%
8,CN(C(=O)Cc1ccc(Cl)c(Cl)c1)[C@H]1CC[C@@]2(CCCO2)C[C@@H]1N1CCCC1,inactive: 2.3%
9,O=[N+]([O-])c1ccc2c(c1)nnn2O,inactive: -5.61%
10,CN(C)C(=O)c1cc([N+](=O)[O-])cc2c1-c1c(cc([N+](=O)[O-])cc1[N+](=O)[O-])C2=O,active: 22.9%
11,NC(=O)Nc1ccc([As](=O)(O)O)cc1,inactive: -0.91%
12,Cc1cccc(OCC(=O)OC2CN3CCC2CC3)c1 (centres undefined),inactive: -3.98%
13,O=[As](O)(c1cccc(O)c1)c1cccc(O)c1,inactive: 10.8%
14,O=C(OC1CN2CCC1CC2)c1ccc(Cl)cc1 (centres undefined),inactive: -4.79%
15,CS(=O)(=O)c1ccc(Cl)c(NC(=O)COC(=O)C(O)(c2ccccc2)c2ccccc2)c1,inactive: -3.42%
16,O=[As](O)(O)c1cccnc1,inactive: 6.92%
17,COc1cc(C(=O)NCC2(N3CCOCC3)CCCCC2)cc(Cl)c1OC(C)C,inactive: 3.52%
18,CCOP(=O)(Nc1cccc2ccccc12)OCC,inactive: -0.47%
19,COc1cc(C2NCCC3(OCCO3)C2(C)C)cc(OC)c1OC (centres undefined),inactive: -3.31%
20,Cc1ccc(NCCc2c([N+](=O)[O-])cc([N+](=O)[O-])cc2[N+](=O)[O-])cc1,inactive: 1.5%
21,Nc1cccc2c([As](=O)(O)O)cccc12,inactive: -7.36%
22,CCCOP(=S)(Nc1nc(N)cc(=O)[nH]1)OCCC,inactive: 3.93%
23,O=P1(N(CCCl)CCCl)Nc2ccccc2N1,inactive: 6.23%
24,O=P1(N(CCCl)CCCl)OCCCN1CCCl (centres undefined),inactive: 1.47%
25,COc1cc(I)ccc1[As](=O)(O)O,inactive: -6.4%

row,SMILES,inhibition
1,COc1ccc2nc(NP(=O)(c3ccccc3)c3ccccc3)sc2c1,inactive: -8.47%
2,Cc1c2c(nc3ccccc13)SC(C(Cl)Cl)C2 (centres undefined),inactive: 2%
3,Cc1cc(=O)[nH]c(N[N+](=O)[O-])n1,inactive: 10.8%
4,O=C(OC1CN2CCC1CC2)C12CC3CC(CC(C3)C1)C2 (centres undefined),inactive: -1.02%
5,O=[N+]([O-])c1cc(Oc2ccc([N+](=O)[O-])cc2C(F)(F)F)cc([N+](=O)[O-])c1,inactive: -3.24%
6,COc1ccc(N/C(=N/P(=O)(N2CCOCC2)N2CCOCC2)N2CCOCC2)cc1,inactive: 0.75%
7,Cc1ccc(OP(=O)(Nc2ccc([N+](=O)[O-])cn2)Oc2ccc(C)cc2)cc1,inactive: 4.6%
8,Cc1ccc2nc3c(c(C)c2c1)CC(C(Cl)Cl)S3 (centres undefined),inactive: 5.12%
9,O=[N+]([O-])c1ccc(-c2cc([N+](=O)[O-])c(O)c([N+](=O)[O-])c2)cc1,inactive: -1.3%
10,COc1cc(C(=O)NCC2(N3CCOCC3)CCCCC2)ccc1OCC(C)C,inactive: 0.02%
11,C[As](=O)(O)c1cccc(C(=O)O)c1,inactive: -3.39%
12,O=[As](O)(c1ccc(O)cc1)c1ccccc1O,inactive: 0.79%
13,O=[N+]([O-])c1cc([N+](=O)[O-])c(-c2ccn[nH]2)s1,inactive: 7.5%
14,CCN(CC)C(=S)SC(NC=O)C(Cl)(Cl)Cl (centres undefined),inactive: -10.2%
15,O=C(OC1CN2CCC1CC2)c1cccc2[nH]cnc12 (centres undefined),inactive: -5.34%
16,ClCCSc1nnc(-c2cccnc2)o1,inactive: -3.55%
17,COC(=O)C1(C)COP(=O)(N2CCCCCC2)OC1 (centres undefined),inactive: -12.8%
18,CC(C)c1ccc(OP(=O)(Nc2ccccn2)Oc2ccccc2F)cc1 (centres undefined),inactive: -1.51%
19,COP(=O)(OC)N1CC1c1ccccc1 (centres undefined),inactive: -4.41%
20,Cc1cc(SC(NC(=O)c2ccccc2)C(Cl)(Cl)Cl)nc(C(C)C)n1 (centres undefined),inactive: 3.88%
21,CCCCOc1ccc(C(=O)NCC2(N3CCCCC3)CCCCC2)cc1OC,inactive: -3.52%
22,O=C(O)C(O)c1ccc(N(CCCl)CCCl)cc1 (centres undefined),inactive: 2.58%
23,CCOC(=O)Nc1ccc([As](=O)(O)O)c(O)c1,inactive: -1.02%
24,CC1CCNP(=O)(N(CCCl)CCCl)O1 (centres undefined),inactive: -0.82%
25,Cc1cc(SC(NC=O)C(Cl)(Cl)Cl)ncn1 (centres undefined),inactive: 1.15%

row,SMILES,inhibition
1,O=P(Nc1ccccn1)(c1cccc2ccccc12)c1cccc2ccccc12,inactive: -2.05%
2,O=[N+]([O-])c1ccc(Nc2ccc(Oc3ccc([N+](=O)[O-])cc3[N+](=O)[O-])cc2)c([N+](=O)[O-])c1,inactive: 3.83%
3,CCOC(=O)Nc1cccc([As](=O)(O)O)c1,inactive: -3.47%
4,O=C(O)C(=O)c1ccc(N(CCCl)CCCl)cc1,inactive: -1.16%
5,O=C(Nc1ccncc1[N+](=O)[O-])c1ccc([N+](=O)[O-])cc1[N+](=O)[O-],inactive: -1.84%
6,O=C(COc1ccccc1)OC1CN2CCC1CC2 (centres undefined),inactive: -6.32%
7,COP1(=S)c2c(C)nn(CCC#N)c2N=C(c2ccc(F)cc2)N1C (centres undefined),inactive: 1.88%
8,CCC(C)N(CC(C)C)C(=S)SC(NC(C)=O)C(Cl)(Cl)Cl (centres undefined),inactive: -6.53%
9,CSc1ccc(Nc2c([N+](=O)[O-])cc([N+](=O)[O-])cc2[N+](=O)[O-])cc1,inactive: -5.47%
10,O=C(OC1CN2CCC1CC2)c1cccc([N+](=O)[O-])c1 (centres undefined),inactive: 5.22%
11,CCOC(=O)c1ccc(NC(=O)C(C)(CCl)SC)cc1 (centres undefined),inactive: 1.33%
12,O=[N+]([O-])c1cc([N+](=O)[O-])c(CCNc2ccccc2)c([N+](=O)[O-])c1,inactive: -5.83%
13,CCc1nc2c(n1)c1c(non1O)c1c2no[n+]1[O-],inactive: 10.3%
14,Cc1ccc(NP(=O)(Oc2ccccc2)Oc2ccccc2)nc1,inactive: -1.04%
15,CC(=O)N1C2C3N(C(C)=O)C1C1N(C(C)=O)C(C(N1C(C)=O)N3C(C)=O)N2C(C)=O,inactive: 7.72%
16,O=[N+]([O-])c1cccc2n[nH]nc12,inactive: -5.63%
17,COc1ccc(C2=NCC(CBr)S2)cc1 (centres undefined),inactive: 1.92%
18,CC1CCN(C(=O)Oc2c(Cl)cc(Cl)c3cccnc23)CC1,inactive: -7.62%
19,c1cc(-c2nn[nH]n2)ccc1-c1nn[nH]n1,inactive: -2.78%
20,CN(C)C(=O)OCCc1n(C)cc[n+]1C,inactive: -3.74%
21,CC(C)c1nc(Nc2ccccc2)n(P(=O)(N(C)C)N(C)C)n1,inactive: -13.9%
22,CC(C)=N/N=C(\N)N[N+](=O)[O-],inactive: -6.78%
23,CCN(/C(=N/P(=O)(N1CCOCC1)N1CCOCC1)N1CCOCC1)c1ccc(OC)cc1,inactive: -6.85%
24,C[N+]1=C2C=CC=CC=C2SC12C([N+](=O)[O-])=CC([N+](=O)[O-])=C[C-]2[N+](=O)[O-] (centres undefined),inactive: 13.3%
